Experimental data as given in PubChem BioAssay AID504357 (The Scripps Research Institute Molecular Screening Center, 2011).
The list shows a part of the results, in another mix than the full data. Active and inactive are the calls of the source. Rule as the data show it: active = inhibition above about 22% (passing the limit was not always enough); inactive = the rest.

By UniProt entry, the sequences of proteins in these tests, tags left out.
UniProt P35372, whole entry, looked up: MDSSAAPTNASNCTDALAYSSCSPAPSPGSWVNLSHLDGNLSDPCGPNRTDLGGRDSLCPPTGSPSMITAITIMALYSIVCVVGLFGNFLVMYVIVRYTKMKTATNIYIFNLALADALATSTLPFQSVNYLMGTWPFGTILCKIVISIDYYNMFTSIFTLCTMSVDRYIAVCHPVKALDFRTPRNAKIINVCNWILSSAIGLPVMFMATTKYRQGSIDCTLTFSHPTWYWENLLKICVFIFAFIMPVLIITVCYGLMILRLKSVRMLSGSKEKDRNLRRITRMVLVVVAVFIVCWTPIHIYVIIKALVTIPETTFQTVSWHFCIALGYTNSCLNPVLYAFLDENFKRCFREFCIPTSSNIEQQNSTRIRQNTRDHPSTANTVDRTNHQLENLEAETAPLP
UniProt P41143, whole entry, looked up: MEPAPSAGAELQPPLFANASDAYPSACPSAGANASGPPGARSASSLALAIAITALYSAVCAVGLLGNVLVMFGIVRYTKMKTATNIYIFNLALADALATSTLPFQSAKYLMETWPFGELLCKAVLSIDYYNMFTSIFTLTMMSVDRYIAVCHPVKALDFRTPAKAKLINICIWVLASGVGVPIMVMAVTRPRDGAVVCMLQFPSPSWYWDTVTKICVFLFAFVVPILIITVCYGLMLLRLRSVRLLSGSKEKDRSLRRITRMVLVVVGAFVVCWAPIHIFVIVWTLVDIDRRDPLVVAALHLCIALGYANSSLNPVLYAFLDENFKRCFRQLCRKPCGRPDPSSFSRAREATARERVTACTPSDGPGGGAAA

Each compound was assayed against Mu-type opioid receptor (Homo sapiens) + Delta-type opioid receptor (Homo sapiens) (UniProt P35372+P41143) (assay: inverse agonists of MOR-DOR heterodimerization, primary screen, cell-based, luminescence (AID 504357;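 also: 0% = cells with DMSO and 100% = wells without cells with DMSO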)). Details: cell-based MOR-DOR heterodimer luminescence, inverse agonism; at 9.3 µM; stronger effect = higher value.

Row | SMILES | inhibition
1 | O=C(Cn1c(-c2cscn2)nc2ccccc21)Nc1ccc2ccccc2c1 | inactive: -13.8%
2 | CCN1C(=O)CC(N2CCC(Nc3ccc(F)cc3)CC2)C1=O (centres undefined) | inactive: 3.07%
3 | CCOP(=O)(Nc1ccc(C)cn1)OCC | inactive: 11.3%
4 | CSc1nc(N)nc2c1ncn2CC(=O)NCCNc1ccc([N+](=O)[O-])cn1 | inactive: 14.9%
5 | CNC(=O)Cn1c(=O)n(C)c2ccccc21 | inactive: 12.2%
6 | CC1c2nc3ccccc3n2C(CC(=O)NC2CC2)C(=O)N1Cc1ccccc1 (centres undefined) | inactive: 16.7%
7 | CC(C)C[C@H](NC(=O)N1CCn2c1nc1ccccc12)C(=O)N[C@@H](C(=O)O)c1ccccc1 | inactive: 11.2%
8 | CN(C)C1(c2nnnn2CCOC(=O)Nc2ccc(Cl)cc2)CCCCC1 | inactive: -23.7%
9 | CC(C)NC(=O)CSc1nc2ccccc2n1CC(=O)N1CCc2ccccc21 | inactive: 5.74%
10 | CC(c1ccccc1)N1CCn2c(nc3cc(NC(=O)NC4CCCCC4)ccc32)C1 (centres undefined) | inactive: 16.5%
11 | Cc1ccc(-c2nc(N(C)C3CCN(C)CC3)c3ccccc3n2)cc1 | inactive: 11.4%
12 | CCOc1ccc(C(=O)N2CCn3c2nc2ccccc23)cc1 | inactive: 17.1%
13 | CCOC(=O)c1ccc(NC(=O)Cn2cnc3cc(C)c(C)cc32)cc1 | inactive: 7.54%
14 | CCOC(=O)Cc1csc(NC(=O)Cn2cnc3c2c(=O)n(C)c(=O)n3C)n1 | inactive: 12.4%
15 | C[C@H](O)[C@@H]1C(=O)N2CCc3ccc(-c4cccc(F)c4)cc3[C@@H]2C[C@@H]1N(C)C(=O)C(C)(C)C | inactive: -5.53%
16 | CCN(CC)CCn1c(NC(=O)c2ccc(C)cc2)nc2ccccc21 | inactive: -12.6%
17 | O=C(Cn1c(COc2ccc(Cl)cc2)nc2ccccc21)NCC(F)(F)F | inactive: 14.4%
18 | Cc1cccc(N2CCN(C(=O)Cn3cnc4c3c(=O)n(C)c(=O)n4C)CC2)c1C | inactive: 11.5%
19 | COC(=O)[C@H](CCSC)NC(=O)Cn1cnc2c(OCc3ccccc3)ncnc21 | inactive: 2.37%
20 | O=C(Cn1c(CO)nc2ccccc21)NCc1ccc2c(c1)OCO2 | inactive: 2.12%
21 | CCC(=O)Nc1ccc2c(c1)nc1n2CCN(C2CCCCC2)C1 | inactive: -3.37%
22 | O=C(Nc1nc2ccccc2n1CCN1CCOCC1)c1ccc(COc2ccccc2Br)o1 | inactive: -4.84%
23 | CC(C)/C=N\N=C(\N)N[N+](=O)[O-] | inactive: -1.3%

Row | SMILES | inhibition
24 | COc1ccc(CCNC(=O)CCCCCNC(=O)N2CCn3c2nc2ccccc23)cc1OC | inactive: 18.3%
25 | CN(C(=O)Cc1ccc(Cl)c(Cl)c1)[C@@H]1CCCC[C@H]1N1CCCC1 | inactive: -5.38%
26 | O=C(Cn1cnc2c(OCc3ccccc3)ncnc21)NCCc1c[nH]c2ccccc12 | inactive: 3.19%
27 | CC(C)CN(C(=O)Cn1c(C(F)(F)F)nc2ccccc21)c1c(N)n(Cc2ccccc2)c(=O)[nH]c1=O | inactive: 4.71%
28 | COCCN(C(=O)Cn1c(C(F)(F)F)nc2ccccc21)c1c(N)n(Cc2ccccc2)c(=O)[nH]c1=O | inactive: 2.07%
29 | Brc1ccc(/C=N/c2nc3ccccc3n2CCN2CCOCC2)cc1 | inactive: 3.6%
30 | c1coc(CNc2nc3ccccc3n2CCN2CCOCC2)c1 | inactive: -3.87%
31 | CC1(CBr)Cn2c(nc3ccccc3c2=O)S1 (centres undefined) | inactive: 11.1%
32 | Fc1ccc(Cn2nnnc2CN2CCC(n3nnc4cc(C(F)(F)F)ccc43)CC2)cc1 | inactive: -0.79%
33 | CN(C)CCCNC(=S)N1CCn2c(nc3ccccc32)C1 | inactive: 15%
34 | CC1CN(C(=O)Cn2c(C(F)(F)F)nc3ccccc32)CC(C)O1 (centres undefined) | inactive: -5.51%
35 | O=C(CCCCCNC(=O)N1CCn2c1nc1ccccc12)N[C@H](Cc1ccccc1)C(=O)O | inactive: 16.5%
36 | CC(CNC(=O)Cn1cnc2c(OCc3ccccc3)ncnc21)c1ccccc1 (centres undefined) | inactive: 16.4%
37 | Cn1c(=O)n(Cc2ccccc2F)c(=O)c2c1nc1n2CCN1Cc1ccco1 | inactive: 12.9%
38 | NC(=O)CC(NC(=O)Cc1ccc(Cl)cc1)c1ccc(NC2CCN(Cc3ccccc3)CC2)c([N+](=O)[O-])c1 (centres undefined) | inactive: 6.29%
39 | CCc1cccc(NC(=O)Cn2c3[n+](c4ccc(C(F)(F)F)cc42)CCCCC3)c1 | inactive: 14.6%
40 | Cc1nc2ccccc2n1CC(=O)N/N=C\C=C\c1ccccc1 | inactive: 10.2%
41 | CS(=O)(=O)N1CCn2c1nc1ccccc12 | inactive: 0.53%
42 | CCN(CC)CCn1c(NCc2ccco2)nc2ccccc21 | inactive: 3.89%
43 | CC(C)C[C@H](NC(=O)N1CCn2c1nc1ccccc12)C(=O)NCc1ccc2c(c1)OCO2 | inactive: 2.99%
44 | Cc1ccc(OCC(O)Cn2c(=N)n(CCN3CCCCC3)c3ccccc32)cc1 (centres undefined) | inactive: -4.43%
45 | N=c1n(CCN2CCCCC2)c2ccccc2n1CC(O)c1cccc(Br)c1 (centres undefined) | inactive: -15.4%
46 | COC(=O)[C@H](Cc1ccccc1)NC(=O)Cn1cnc2c(OCc3ccccc3)ncnc21 | inactive: 7.91%

Row | SMILES | inhibition
47 | COc1cccc(NC(=S)N2CCn3c(nc4ccccc43)C2)c1 | inactive: 6.32%
48 | O=C(CCNC(=O)N1CCn2c1nc1ccccc12)NCc1ccccc1 | inactive: 12.6%
49 | Cc1ccc(NC(=O)C2CC(=O)Nc3nc4ccccc4n32)c(C)c1 (centres undefined) | inactive: 7.2%
50 | Cc1ccc2c(c1)C1CN(C)CCC1N2C(=O)c1cccc(S(=O)(=O)N2CC(C)CC(C)C2)c1 (centres undefined) | inactive: -9.42%
51 | COc1ccc(N(C(=O)Cn2cnc3ccccc32)C(C(=O)NC2CCCCC2)c2ccccc2)cc1 (centres undefined) | inactive: 8.97%
52 | Cn1c(=O)c2ncn(CC(=O)N/N=C/C=C/c3ccccc3)c2n(C)c1=O | inactive: 14.6%
53 | CCN(CC)c1ccc(CNc2nc3ccccc3n2CCN2CCCCC2)cc1 | inactive: -244%
54 | COc1ccccc1C(=O)Nc1ccc2c(c1)nc1n2CCN(Cc2ccccc2)C1 | inactive: -8.17%
55 | COc1ccccc1CNC(=O)COC(=O)C(O)(c1ccccc1)c1ccccc1 | inactive: 9.52%
56 | Cn1c(=O)c2c(nc(N3CCCCC3)n2CCNC2=NCCC2)n(C)c1=O | inactive: 15.1%
57 | O=C(Cn1cnc2c(OCc3ccccc3)ncnc21)N[C@H](CO)Cc1cc2ccccc2[nH]1 | inactive: 13.9%
58 | Cn1c(=O)c2ncn(CC(=O)NCCOc3ccc(C(C)(C)C)cc3)c2n(C)c1=O | inactive: 10.1%
59 | O=C(CSc1nc2ccccc2n1CC(=O)NCc1ccccc1)NCc1ccco1 | inactive: 12.3%
60 | CC(=O)Nc1ccc(NC(=O)C2CC(=O)Nc3nc4ccccc4n32)cc1 (centres undefined) | inactive: 13%
61 | CCN1C(=O)CC(N2CCC(Nc3ccc(OC)cc3)CC2)C1=O (centres undefined) | inactive: 2.75%
62 | COc1ccc(Cl)cc1NC(=O)Cn1c(NCCO)nc2ccccc21 | inactive: 7.38%
63 | CCCC1OP(=O)(Nc2ccccc2)OCC1CC (centres undefined) | inactive: 10.5%
64 | O=S(=O)(Nc1ccc2c(c1)nc1n2CCN(Cc2ccccc2)C1)c1ccccc1 | inactive: 14.4%
65 | O=S(=O)(c1ccc(Cl)c(Cl)c1)N1CCc2nc3ccccc3n2CC1 | inactive: 6.06%
66 | Cn1c(=O)c2c(ncn2CC(=O)N/N=C/C=C/c2ccccc2)n(C)c1=O | inactive: 5.4%
67 | CC1CC(C)CN(Cc2nc3c(c(=O)n(C)c(=O)n3C)n2CCN2CCOCC2)C1 (centres undefined) | inactive: -8.04%
68 | COc1ccc(CN(C)C(=O)Cn2cnc3c(SC)nc(N)nc32)cc1OC | inactive: 13.1%
69 | O=S(=O)(c1ccc(Br)cc1)N1CCn2c(nc3ccccc32)C1 | inactive: -0.08%

Row | SMILES | inhibition
70 | CCN(c1ccccc1)S(=O)(=O)c1ccc(OC)c(NC(=O)Cn2cnc3c2c(=O)n(C)c(=O)n3C)c1 | inactive: 8.3%
71 | COc1cccc(C(=O)N2CCn3c2nc2ccccc23)c1 | inactive: 15.9%
72 | COc1ccc(Cc2nc3ccccc3n2CC(=O)N/N=C/c2ccc(C)cc2O)cc1OC | inactive: -4.58%
73 | CN1CN(c2ccccc2)C2(CCN(CCCSc3ccccc3NC(=O)/C=C/c3ccccc3)CC2)C1=O | inactive: -80%
74 | COc1cccc(NC(=O)Cn2c(SCC(=O)N3CCOCC3)nc3ccccc32)c1 | inactive: 6.16%
75 | O=C(/C=C/c1ccccc1)OC1CN2CCC1CC2 (centres undefined) | inactive: 14.4%
76 | CC1CCC(C(C)C)C(OP(=O)(Nc2ccccn2)c2ccccc2)C1 (centres undefined) | inactive: -33.3%
77 | CCN(CC)C(=O)Cn1c(=O)n(C)c2ccccc21 | inactive: -2.95%
78 | Cc1ccc(C(=O)OC2CN3CCC2CC3)cc1 (centres undefined) | inactive: 8.83%
79 | CCN(CC)c1ccc(NC(=O)Cn2c(C(C)NC(=O)c3ccccc3)nc3ccccc32)cc1 (centres undefined) | inactive: -0.32%
80 | Cc1cccc(Cn2c(=O)c3c(nc4n3CCN4Cc3ccco3)n(C)c2=O)c1 | inactive: 14.4%
81 | Cc1nn(-c2ccccc2)c2c1P(=O)(N1CCOCC1)N(C)C(c1ccccc1)=N2 (centres undefined) | inactive: 4.97%
82 | CCCC(=O)Nc1ccc(C(=O)/C=C/c2ccc(SC)cc2)cc1 | inactive: -5.67%
83 | CCn1cc(Cl)c(C(=O)Nc2nc3ccccc3n2CCN2CCCCC2)n1 | inactive: 3.65%
84 | c1ccc2c(c1)nc(-c1ccncc1)n2CCNc1nc(CN2CCCCC2)cs1 | inactive: 21%
85 | Cc1cccc(C)c1NC(=O)N1CCC(n2c(=O)[nH]c3ccccc32)CC1 | inactive: 10.4%
86 | O=C(Cn1c(C(F)(F)F)nc2ccccc21)NCCN1CCCC1 | inactive: 1.32%
87 | O=C(Cn1cnc2ccccc21)Nc1cc(C(F)(F)F)ccc1N1CCOCC1 | inactive: 0.19%
88 | O=C(Cn1c(=O)n(CC2CS2)c2ccccc21)N1CCCCCC1 (centres undefined) | inactive: -4.13%
89 | CC(C)(C)NC(=O)Cn1c(SCC(=O)NCc2cccs2)nc2ccccc21 | inactive: 18.7%
